In patent US20220265727A1:

Target: human CTLA-4 on CTLA-4 effector cells (Jurkat T cells) (human) (UniProt P16410)
Assay: cell-based or functional assay
Design: unit not given beside the values

EC50, CTLA-4 Blockade Bioassay (luciferase activity)	Substance
1.57	ipilimumab biosimilar, positive control (Yervoy, Bristol-Myers Squibb SA) (antibody)
1.52	myoblast-produced anti-CTLA4 IgG (ipilimumab variable regions in a human IgG1 heavy chain and human kappa light chain backbone) (antibody)
